# Measured values reported in IntAct's records for PubMed 35512704.
# B1: RAC-alpha serine/threonine-protein kinase (Homo sapiens), P31749 (parent)
# chain: MSDVAIVKEGWLHKRGEYIKTWRPRYFLLKNDGTFIGYKERPQDVDQREAPLNNFSVAQCQLMKTERPRPNTFIIRCLQWTTVIERTFHVETPEEREEWTTAIQTVADGLKKQEEEEMDFRSGSPSDNSGAEEMEVSLAKPKHRVTMNEFEYLKLLGKGTFGKVILVKEKATGRYYAMKILKKEVIVAKDEVAHTLTENRVLQNSRHPFLTALKYSFQTHDRLCFVMEYANGGELFFHLSRERVFSEDRARFYGAEIVSALDYLHSEKNVVYRDLKLENLMLDKDGHIKITDFGLCKEGIKDGATMKTFCGTPEYLAPEVLEDNDYGRAVDWWGLGVVMYEMMCGRLPFYNQDHEKLFELILMEEIRFPRTLGPEAKSLLSGLLKKDPKQRLGGGSEDAKEIMQHRFFAGIVWQHVYEKKLSPPFKPQVTSETDTRYFDEEFTAQMITITPPDQDDSMECVDSERRPHFPQFSYSASGTA
# partner: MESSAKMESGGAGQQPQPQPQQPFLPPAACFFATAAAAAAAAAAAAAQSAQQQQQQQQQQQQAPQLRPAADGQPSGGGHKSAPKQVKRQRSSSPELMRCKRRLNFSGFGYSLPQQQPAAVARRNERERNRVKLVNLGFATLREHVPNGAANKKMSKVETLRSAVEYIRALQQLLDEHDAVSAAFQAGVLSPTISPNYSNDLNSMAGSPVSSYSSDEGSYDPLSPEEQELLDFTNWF
# B2: RAC-alpha serine/threonine-protein kinase (Homo sapiens), P31749 (parent)
# chain: B1 chain
# partner: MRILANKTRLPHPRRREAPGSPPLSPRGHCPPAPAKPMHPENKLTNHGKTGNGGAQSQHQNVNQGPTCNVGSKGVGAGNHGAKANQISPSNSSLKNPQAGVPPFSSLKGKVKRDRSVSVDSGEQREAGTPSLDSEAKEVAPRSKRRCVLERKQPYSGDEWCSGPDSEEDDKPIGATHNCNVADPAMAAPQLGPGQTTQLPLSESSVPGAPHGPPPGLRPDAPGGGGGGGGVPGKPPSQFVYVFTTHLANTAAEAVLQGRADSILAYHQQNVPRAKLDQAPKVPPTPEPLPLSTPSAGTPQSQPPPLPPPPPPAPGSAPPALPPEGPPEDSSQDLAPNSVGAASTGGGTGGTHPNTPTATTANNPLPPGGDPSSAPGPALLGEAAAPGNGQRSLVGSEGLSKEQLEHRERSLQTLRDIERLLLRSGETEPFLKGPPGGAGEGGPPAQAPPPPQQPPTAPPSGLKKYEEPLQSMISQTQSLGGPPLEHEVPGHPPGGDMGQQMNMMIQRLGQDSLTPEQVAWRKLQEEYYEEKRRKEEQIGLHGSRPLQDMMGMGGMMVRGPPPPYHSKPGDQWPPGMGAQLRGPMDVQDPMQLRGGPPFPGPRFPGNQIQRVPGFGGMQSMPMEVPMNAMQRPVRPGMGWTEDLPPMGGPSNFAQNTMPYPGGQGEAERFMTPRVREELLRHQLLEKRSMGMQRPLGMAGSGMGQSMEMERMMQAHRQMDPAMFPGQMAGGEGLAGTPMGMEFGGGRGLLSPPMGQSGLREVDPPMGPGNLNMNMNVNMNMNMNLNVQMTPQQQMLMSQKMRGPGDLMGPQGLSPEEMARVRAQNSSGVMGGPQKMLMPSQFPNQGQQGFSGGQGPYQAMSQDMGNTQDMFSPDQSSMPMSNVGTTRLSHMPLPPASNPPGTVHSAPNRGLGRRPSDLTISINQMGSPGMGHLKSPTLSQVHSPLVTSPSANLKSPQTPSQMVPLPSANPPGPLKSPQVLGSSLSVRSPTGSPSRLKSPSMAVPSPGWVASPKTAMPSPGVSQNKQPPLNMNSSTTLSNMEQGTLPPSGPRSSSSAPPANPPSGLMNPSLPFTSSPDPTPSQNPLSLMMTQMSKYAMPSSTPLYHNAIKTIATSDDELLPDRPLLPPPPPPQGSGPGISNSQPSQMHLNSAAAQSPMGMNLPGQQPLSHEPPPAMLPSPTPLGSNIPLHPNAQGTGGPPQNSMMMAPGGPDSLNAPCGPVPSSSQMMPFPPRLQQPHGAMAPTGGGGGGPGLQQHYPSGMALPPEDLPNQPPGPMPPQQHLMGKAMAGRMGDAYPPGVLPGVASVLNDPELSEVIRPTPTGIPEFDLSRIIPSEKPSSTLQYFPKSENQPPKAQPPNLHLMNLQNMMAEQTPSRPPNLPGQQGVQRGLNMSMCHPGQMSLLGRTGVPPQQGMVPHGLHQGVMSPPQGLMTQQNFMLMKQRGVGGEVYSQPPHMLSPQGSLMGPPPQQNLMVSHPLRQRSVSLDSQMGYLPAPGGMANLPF
# B3: RAC-alpha serine/threonine-protein kinase (Homo sapiens), P31749 (parent)
# chain: B1 chain
# partner: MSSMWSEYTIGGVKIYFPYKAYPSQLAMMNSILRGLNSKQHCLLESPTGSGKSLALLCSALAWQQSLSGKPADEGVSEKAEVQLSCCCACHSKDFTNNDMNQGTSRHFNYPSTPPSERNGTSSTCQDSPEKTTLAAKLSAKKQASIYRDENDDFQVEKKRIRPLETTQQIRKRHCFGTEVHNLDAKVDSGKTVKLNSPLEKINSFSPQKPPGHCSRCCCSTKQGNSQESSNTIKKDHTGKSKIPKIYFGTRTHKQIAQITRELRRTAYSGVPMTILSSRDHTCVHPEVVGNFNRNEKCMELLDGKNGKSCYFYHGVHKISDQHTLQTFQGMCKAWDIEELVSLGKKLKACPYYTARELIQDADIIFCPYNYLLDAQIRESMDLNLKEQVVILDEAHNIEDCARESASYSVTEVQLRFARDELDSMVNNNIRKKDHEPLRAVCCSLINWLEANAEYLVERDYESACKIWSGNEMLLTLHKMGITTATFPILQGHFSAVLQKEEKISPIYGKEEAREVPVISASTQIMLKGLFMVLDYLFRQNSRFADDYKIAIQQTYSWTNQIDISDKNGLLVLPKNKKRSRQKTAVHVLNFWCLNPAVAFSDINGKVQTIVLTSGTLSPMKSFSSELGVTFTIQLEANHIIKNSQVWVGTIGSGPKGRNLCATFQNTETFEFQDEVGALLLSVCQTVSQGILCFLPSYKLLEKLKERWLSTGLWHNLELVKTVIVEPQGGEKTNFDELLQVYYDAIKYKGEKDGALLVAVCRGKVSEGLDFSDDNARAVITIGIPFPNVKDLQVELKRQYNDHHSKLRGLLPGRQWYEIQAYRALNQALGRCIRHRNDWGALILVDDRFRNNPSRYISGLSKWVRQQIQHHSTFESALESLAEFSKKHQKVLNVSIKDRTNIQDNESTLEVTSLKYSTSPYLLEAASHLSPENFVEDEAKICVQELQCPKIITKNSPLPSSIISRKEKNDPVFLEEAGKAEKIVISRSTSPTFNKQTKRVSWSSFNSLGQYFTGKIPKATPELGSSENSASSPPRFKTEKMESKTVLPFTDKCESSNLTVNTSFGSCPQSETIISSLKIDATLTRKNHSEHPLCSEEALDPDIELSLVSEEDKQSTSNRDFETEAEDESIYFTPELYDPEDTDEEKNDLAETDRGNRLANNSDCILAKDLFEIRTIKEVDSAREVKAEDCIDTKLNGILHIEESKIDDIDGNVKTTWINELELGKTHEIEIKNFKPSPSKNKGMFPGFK
# B4: RAC-alpha serine/threonine-protein kinase (Homo sapiens), P31749 (parent)
# chain: B1 chain
# partner: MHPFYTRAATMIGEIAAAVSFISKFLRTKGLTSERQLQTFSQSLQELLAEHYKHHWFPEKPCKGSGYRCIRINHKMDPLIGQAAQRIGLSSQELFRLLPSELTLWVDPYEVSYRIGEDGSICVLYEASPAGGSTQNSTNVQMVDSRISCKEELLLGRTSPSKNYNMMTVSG
# B5: RAC-alpha serine/threonine-protein kinase (Homo sapiens), P31749 (parent)
# chain: B1 chain
# partner: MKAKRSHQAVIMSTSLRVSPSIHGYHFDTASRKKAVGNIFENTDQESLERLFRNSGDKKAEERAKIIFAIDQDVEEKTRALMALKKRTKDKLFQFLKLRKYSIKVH
# B6: RAC-alpha serine/threonine-protein kinase (Homo sapiens), P31749 (parent)
# chain: B1 chain
# partner: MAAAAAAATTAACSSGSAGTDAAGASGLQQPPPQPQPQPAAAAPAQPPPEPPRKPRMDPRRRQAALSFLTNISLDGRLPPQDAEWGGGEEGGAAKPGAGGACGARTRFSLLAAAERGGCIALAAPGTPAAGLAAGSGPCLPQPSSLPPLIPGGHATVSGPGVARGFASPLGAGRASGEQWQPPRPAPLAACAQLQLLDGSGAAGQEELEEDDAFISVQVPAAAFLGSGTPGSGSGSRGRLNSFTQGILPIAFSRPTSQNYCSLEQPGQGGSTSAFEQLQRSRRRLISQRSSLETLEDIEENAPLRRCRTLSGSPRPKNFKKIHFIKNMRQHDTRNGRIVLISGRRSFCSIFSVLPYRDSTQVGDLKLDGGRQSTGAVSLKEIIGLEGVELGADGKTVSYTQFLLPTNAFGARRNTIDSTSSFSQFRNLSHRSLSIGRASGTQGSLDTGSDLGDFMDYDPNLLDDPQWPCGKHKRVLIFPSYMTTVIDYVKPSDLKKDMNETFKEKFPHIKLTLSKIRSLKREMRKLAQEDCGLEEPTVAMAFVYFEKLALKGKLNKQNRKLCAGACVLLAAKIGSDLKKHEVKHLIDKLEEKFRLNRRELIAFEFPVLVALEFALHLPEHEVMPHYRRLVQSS
# B7: RAC-alpha serine/threonine-protein kinase (Homo sapiens), P31749 (parent)
# chain: B1 chain
# partner: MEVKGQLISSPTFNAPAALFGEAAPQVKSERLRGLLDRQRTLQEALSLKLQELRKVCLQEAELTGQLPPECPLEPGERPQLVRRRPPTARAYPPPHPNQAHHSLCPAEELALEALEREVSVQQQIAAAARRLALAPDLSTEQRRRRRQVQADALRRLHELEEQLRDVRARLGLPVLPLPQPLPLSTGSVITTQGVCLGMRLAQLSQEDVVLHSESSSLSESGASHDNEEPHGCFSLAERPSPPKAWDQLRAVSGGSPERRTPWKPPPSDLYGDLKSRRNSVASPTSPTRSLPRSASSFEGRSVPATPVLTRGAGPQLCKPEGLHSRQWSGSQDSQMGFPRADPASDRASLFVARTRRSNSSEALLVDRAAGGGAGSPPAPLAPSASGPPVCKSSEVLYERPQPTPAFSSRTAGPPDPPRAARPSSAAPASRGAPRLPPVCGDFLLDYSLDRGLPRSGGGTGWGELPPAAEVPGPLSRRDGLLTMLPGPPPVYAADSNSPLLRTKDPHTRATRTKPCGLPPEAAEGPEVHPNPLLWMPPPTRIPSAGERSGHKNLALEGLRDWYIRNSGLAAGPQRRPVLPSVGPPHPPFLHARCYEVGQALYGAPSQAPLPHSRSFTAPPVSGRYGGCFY
# B8: RAC-alpha serine/threonine-protein kinase (Homo sapiens), P31749 (parent)
# chain: B1 chain
# partner: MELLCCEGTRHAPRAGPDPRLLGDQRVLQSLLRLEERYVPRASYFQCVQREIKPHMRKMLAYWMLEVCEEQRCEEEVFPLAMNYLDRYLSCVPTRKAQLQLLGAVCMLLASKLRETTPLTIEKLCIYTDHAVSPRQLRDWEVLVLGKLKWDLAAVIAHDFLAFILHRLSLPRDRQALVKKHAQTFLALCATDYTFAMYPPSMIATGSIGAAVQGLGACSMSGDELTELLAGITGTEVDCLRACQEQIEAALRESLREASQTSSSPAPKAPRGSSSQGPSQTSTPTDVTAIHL
# Variants of: B1
# Details: with ascl1_human ASCL1, P50553
row,Variant,effect of a mutation on the interaction
1,E17K,causing an interaction

# Variants of: B2
# Details: with bcl9l_human BCL9L
row,Variant,effect of a mutation on the interaction
1,E17K,causing an interaction

# Variants of: B3
# Details: with fancj_human BRIP1, Q9BX63
row,Variant,effect of a mutation on the interaction
1,E17K,causing an interaction

# Variants of: B4
# Details: with btg1_human BTG1, P62324
row,Variant,effect of a mutation on the interaction
1,E17K,causing an interaction

# Variants of: B4
# Details: with btg1_human BTG1, P62324
# Remark: another data set of the same source
row,Variant,effect of a mutation on the interaction
1,E17K,increasing interaction strength

# Variants of: B5
# Details: with tcim_human TCIM
row,Variant,effect of a mutation on the interaction
1,E17K,causing an interaction

# Variants of: B6
# Details: with cabl1_human CABLES1, Q8TDN4
row,Variant,effect of a mutation on the interaction
1,E17K,causing an interaction

# Variants of: B7
# Details: with cc120_human CCDC120, Q96HB5
row,Variant,effect of a mutation on the interaction
1,E17K,causing an interaction

# Variants of: B8
# Details: with ccnd3_human CCND3, P30281
row,Variant,effect of a mutation on the interaction
1,E17K,causing an interaction

# Variants of: B8
# Details: with ccnd3_human CCND3, P30281
# Remark: another data set of the same source
row,Variant,effect of a mutation on the interaction
1,E17K,increasing interaction strength
